The target of one data set is hNav1.2 (Homo sapiens, UniProt Q99250). The data set is classed as biochemical.
For the next data set, the target named is hNav1.3 (Homo sapiens, UniProt Q9NY46). It counts as biochemical.
The subject of another data set is injected paw. The note with it: Hm1a intraplantar, mouse.

Sequences of proteins named here, by UniProt entry; tags and fusion partners are left off.
UniProt Q99250, whole entry: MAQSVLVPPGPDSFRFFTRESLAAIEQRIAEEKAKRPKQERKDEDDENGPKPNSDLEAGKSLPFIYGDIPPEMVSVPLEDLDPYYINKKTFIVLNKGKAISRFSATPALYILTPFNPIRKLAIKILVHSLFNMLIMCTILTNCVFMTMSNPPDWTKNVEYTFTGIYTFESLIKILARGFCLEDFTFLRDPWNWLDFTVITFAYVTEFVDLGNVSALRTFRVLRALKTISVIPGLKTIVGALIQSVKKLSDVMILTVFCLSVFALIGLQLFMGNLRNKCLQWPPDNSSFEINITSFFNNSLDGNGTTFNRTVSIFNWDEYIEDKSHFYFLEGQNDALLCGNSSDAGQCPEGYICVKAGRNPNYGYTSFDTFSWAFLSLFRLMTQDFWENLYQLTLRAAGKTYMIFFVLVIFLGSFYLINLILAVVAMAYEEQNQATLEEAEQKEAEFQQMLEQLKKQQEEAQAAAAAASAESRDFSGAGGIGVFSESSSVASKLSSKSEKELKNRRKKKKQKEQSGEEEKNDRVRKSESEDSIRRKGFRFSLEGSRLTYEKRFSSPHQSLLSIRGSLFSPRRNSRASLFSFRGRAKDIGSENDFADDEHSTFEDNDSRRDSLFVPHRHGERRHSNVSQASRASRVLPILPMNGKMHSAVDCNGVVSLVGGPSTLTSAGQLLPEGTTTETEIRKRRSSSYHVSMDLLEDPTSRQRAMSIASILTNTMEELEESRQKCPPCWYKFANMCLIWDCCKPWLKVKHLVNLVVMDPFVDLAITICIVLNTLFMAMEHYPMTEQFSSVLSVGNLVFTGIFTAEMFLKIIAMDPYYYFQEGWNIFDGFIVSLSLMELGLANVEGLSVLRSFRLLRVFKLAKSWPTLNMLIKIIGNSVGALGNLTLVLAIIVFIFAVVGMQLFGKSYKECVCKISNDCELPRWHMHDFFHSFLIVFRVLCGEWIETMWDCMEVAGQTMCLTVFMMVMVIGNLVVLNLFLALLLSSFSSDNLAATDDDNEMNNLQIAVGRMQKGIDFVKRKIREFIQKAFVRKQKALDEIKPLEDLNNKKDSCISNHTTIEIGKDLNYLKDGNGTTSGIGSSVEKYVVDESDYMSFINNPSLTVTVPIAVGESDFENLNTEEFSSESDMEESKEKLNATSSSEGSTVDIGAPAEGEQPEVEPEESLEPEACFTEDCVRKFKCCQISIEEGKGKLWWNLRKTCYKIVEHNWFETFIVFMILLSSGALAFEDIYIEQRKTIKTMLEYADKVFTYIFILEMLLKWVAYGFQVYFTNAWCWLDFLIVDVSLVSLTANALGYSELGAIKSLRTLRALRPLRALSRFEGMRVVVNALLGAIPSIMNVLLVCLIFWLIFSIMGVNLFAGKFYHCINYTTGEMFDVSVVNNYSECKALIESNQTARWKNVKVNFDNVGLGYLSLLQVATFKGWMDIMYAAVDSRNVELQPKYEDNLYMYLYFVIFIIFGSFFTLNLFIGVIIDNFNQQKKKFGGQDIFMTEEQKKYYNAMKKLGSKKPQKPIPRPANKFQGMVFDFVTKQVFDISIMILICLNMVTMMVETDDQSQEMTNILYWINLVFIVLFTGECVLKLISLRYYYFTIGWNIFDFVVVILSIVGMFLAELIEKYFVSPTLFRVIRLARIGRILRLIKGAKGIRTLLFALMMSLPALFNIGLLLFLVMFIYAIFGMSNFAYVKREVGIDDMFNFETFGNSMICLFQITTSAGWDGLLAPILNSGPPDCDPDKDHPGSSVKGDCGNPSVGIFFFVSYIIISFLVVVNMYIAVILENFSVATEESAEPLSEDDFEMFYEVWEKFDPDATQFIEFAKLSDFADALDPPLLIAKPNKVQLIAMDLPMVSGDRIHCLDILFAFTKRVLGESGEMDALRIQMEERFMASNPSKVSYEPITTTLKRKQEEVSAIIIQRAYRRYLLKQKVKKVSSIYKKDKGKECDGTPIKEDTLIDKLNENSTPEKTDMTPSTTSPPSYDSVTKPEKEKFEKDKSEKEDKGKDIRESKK
UniProt Q9NY46, whole entry S208D: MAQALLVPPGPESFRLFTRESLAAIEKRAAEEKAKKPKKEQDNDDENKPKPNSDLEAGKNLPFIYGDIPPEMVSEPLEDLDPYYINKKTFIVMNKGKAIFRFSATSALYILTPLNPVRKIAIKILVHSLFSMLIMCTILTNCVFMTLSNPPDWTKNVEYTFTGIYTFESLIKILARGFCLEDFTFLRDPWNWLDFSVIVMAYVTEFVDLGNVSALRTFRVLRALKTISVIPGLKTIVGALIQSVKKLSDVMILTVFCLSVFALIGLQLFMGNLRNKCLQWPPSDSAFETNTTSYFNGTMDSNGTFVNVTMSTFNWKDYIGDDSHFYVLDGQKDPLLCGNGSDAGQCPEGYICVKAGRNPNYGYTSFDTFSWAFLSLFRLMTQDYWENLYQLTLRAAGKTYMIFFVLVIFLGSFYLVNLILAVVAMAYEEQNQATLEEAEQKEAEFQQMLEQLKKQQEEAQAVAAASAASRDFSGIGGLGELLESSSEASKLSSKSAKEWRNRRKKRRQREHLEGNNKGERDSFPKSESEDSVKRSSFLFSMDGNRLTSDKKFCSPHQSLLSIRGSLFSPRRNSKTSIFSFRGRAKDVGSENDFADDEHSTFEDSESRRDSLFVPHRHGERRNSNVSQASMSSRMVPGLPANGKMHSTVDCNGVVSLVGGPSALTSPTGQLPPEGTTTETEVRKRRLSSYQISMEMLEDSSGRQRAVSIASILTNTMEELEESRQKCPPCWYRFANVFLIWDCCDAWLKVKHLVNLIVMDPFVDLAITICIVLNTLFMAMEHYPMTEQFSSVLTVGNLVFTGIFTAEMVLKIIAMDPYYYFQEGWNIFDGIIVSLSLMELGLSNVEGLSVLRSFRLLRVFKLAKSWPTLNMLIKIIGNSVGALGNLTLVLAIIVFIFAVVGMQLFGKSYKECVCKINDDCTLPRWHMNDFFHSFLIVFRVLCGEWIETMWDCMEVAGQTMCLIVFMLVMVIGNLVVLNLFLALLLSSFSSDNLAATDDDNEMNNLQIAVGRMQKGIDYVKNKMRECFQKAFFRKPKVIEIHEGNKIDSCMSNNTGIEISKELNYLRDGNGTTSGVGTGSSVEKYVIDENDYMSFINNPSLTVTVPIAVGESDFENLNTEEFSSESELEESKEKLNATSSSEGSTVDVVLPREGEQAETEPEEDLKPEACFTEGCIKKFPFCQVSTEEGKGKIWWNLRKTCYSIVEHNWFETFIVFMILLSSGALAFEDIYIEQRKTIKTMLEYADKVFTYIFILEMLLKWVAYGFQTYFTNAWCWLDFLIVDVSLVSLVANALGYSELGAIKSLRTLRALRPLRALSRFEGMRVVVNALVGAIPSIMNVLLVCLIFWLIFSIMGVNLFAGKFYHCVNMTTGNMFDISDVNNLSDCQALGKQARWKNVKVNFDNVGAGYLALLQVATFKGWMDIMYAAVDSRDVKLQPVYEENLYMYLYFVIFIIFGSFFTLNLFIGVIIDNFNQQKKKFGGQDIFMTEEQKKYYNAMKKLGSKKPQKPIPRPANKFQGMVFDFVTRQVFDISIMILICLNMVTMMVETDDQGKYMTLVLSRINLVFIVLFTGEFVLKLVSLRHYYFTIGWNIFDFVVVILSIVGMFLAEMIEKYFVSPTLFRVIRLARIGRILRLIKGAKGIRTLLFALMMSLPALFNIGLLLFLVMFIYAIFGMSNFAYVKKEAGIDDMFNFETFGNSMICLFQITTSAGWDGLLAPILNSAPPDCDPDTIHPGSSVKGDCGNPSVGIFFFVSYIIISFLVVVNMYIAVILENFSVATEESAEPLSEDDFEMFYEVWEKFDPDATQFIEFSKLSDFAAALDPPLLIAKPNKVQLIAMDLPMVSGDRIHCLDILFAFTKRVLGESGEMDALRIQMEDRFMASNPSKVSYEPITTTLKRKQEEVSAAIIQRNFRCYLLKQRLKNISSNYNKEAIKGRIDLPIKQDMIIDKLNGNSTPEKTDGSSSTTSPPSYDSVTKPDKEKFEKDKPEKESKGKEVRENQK

These results are taken from paper PMC4919188 (Nature, 2016).

By EC50 is commonly meant the concentration at which the effect is half-maximal. Higher therefore signals a less potent agent.

On to `CC(C)C[C@@H]1NC(=O)[C@H](Cc2ccc(O)cc2)NC(=O)[C@H](CCCNC(=N)N)NC(=O)[C@@H](NC(=O)[C@@H](N)CCC(=O)O)CSSC[C@@H]2NC(=O)[C@@H]3CSSC[C@@H](C(=O)N[C@@H](C)C(=O)N[C@@H](Cc4c[nH]c5ccccc45)C(=O)N[C@@H](CC(=O)O)C(=O)NCC(=O)N[C@H](C(=O)N[C@@H](Cc4ccccc4)C(=O)N[C@@H](CO)C(=O)O)[C@@H](C)O)NC(=O)[C@H](Cc4ccc(O)cc4)NC(=O)[C@H](CCCCN)NC(=O)[C@H](Cc4c[nH]c5ccccc45)NC(=O)[C@H](CC(=O)O)NC(=O)[C@H](CO)NC(=O)[C@H](CCCNC(=N)N)NC(=O)[C@H](CSSC[C@H](NC(=O)CNC(=O)CNC(=O)[C@H](Cc4ccccc4)NC1=O)C(=O)N[C@@H](CO)C(=O)N[C@@H](CO)C(=O)N[C@@H]([C@@H](C)O)C(=O)N[C@@H](CO)C(=O)N[C@@H](CC(=O)O)C(=O)N3)NC(=O)[C@H](CO)NC(=O)[C@H](CC(C)C)NC(=O)[C@H](Cc1c[nH]cn1)NC(=O)[C@H](CCCCN)NC2=O` [Hm1a], for which the EC50 was 236 nM at hNav1.2 and 220 nM at hNav1.3. For the same compound, the “swelling or plasma extravasation of the injected paw” value with injected paw is given as “did not produce swelling or plasma extravasation”.
